The record followed here is patent US20140094465A1, “Compounds as S-Nitrosoglutathione Reductase Inhibitors” (N30 PHARMACEUTICALS, INC., priority 2011, published 2014).

Amino acid sequences for entries named in this document (tags omitted).
UniProt P11766, whole entry: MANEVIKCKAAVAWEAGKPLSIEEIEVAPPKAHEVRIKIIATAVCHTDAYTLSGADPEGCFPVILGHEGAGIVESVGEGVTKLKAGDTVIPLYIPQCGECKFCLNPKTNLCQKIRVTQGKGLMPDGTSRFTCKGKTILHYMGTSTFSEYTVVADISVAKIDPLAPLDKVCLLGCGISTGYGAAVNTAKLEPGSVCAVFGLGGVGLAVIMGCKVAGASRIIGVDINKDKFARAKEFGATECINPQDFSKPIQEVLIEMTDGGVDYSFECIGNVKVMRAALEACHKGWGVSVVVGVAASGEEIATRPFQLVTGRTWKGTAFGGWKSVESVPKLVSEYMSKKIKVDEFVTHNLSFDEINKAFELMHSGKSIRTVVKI

For this experiment, the target named is S-nitrosoglutathione reductase (GSNOR) (Homo sapiens, UniProt P11766). Description: GSNOR assay (inhibition of GSNOR activity, NADH absorbance at 340 nm). The experiment is classed as biochemical. The note with it: read-out: IC50 range; GSNOR inhibitor activity, Tables 1-6.
Turning to `O=C(O)c1ccc(-c2ccc3cc(O)ccc3[n+]2[O-])cc1`, the IC50 is 100 to 1000 nM.

As to `N#Cc1c(-c2ccc(C(=O)O)cc2)ccc2c(F)c(O)ccc12`, the IC50 was under 100 nM.

As to `O=C(O)c1ccc(-c2cnc3cc(O)ccc3n2)cc1`, the IC50 is under 100 nM.

Turning to `O=C(O)c1ccc(-c2cc3ccc(O)cc3cn2)cc1`, the IC50 lay in the range of 100 to 1000 nM.

On to `Cc1sc2cc(O)ccc2c(=O)c1-c1ccc(C(=O)O)cc1`, for which the IC50 was under 100 nM.

Regarding `O=C(O)c1ccc(-c2c(C3CCCC3)oc3cc(O)ccc3c2=O)cc1`, the IC50 fell in the range of 1000 to 10000 nM.

With `N#Cc1c(-c2ccc(C(=O)O)cc2)ccc2cc(O)ccc12`, the IC50 was under 100 nM.

Take `O=C(O)c1ccc(-c2c(C(F)F)oc3cc(O)ccc3c2=O)cc1`: the IC50 was under 100 nM.

For the compound `O=C(O)c1ccc(-c2nnc3cc(O)ccc3n2)cc1`, the IC50 was 100 to 1000 nM.

With `O=C(O)c1ccc(-c2cc(Cl)c3cc(O)ccc3n2)cc1`, the half-maximal inhibitory concentration (IC50) is under 100 nM.

With `O=C(O)c1ccc(-c2nc3ccc(O)cc3[n+]([O-])n2)cc1`, the concentration for half-maximal inhibition (IC50) was under 100 nM.

As to `O=C(O)c1ccc(-c2c(C(F)(F)F)oc3cc(O)c(F)cc3c2=O)cc1`, the IC50 lay in the range of 100 to 1000 nM.

Turning to `O=C(O)c1ccc(-c2c(Cc3ccccc3)oc3cc(O)ccc3c2=O)cc1`, the IC50 fell in the range of 100 to 1000 nM.

In the case of `COc1cc2cc(O)ccc2cc1-c1ccc(C(=O)O)cc1`, the IC50 is 1000 to 10000 nM.

Take `CC(C)Cc1oc2cc(O)ccc2c(=O)c1-c1ccc(C(=O)O)cc1`: the IC50 fell in the range of 100 to 1000 nM.

For the compound `O=C(O)c1ccc(-c2coc3cc(O)ccc3c2=O)cc1`, the IC50 was in the range of 100 to 1000 nM.

As for `CC(C)c1oc2cc(O)ccc2c(=O)c1-c1ccc(C(=O)O)cc1`, the IC50 was 100 to 1000 nM.

Regarding `CSc1oc2cc(O)ccc2c(=O)c1-c1ccc(C(=O)O)cc1`, the IC50 lay in the range of 100 to 1000 nM.

As to `Cc1c(-c2ccc(C(=O)O)cc2)ccc2cc(O)ccc12`, the IC50 fell in the range of 100 to 1000 nM.

Turning to `O=C(O)c1ccc(-c2c(C(F)(F)F)oc3cc(O)c(Cl)cc3c2=O)cc1`, the IC50 is 1000 to 10000 nM.

For `O=C(O)c1ccc(-c2nc3ccc(O)cc3cc2F)cc1`, the IC50 was under 100 nM.

For `N#Cc1cc2c(=O)c(-c3ccc(C(=O)O)cc3)c(C(F)(F)F)oc2cc1O`, the IC50 was 1000 to 10000 nM.

Turning to `CCC(F)(F)c1oc2cc(O)ccc2c(=O)c1-c1ccc(C(=O)O)cc1`, the IC50 is 100 to 1000 nM.

Consider `O=C(O)c1ccc(-c2ccc3c(Cl)c(O)ccc3n2)cc1`, for which the IC50 lay in the range of 100 to 1000 nM.

Regarding `O=C(O)c1ccc(-c2ccc3cc(O)ccc3c2Br)cc1`, the IC50 is under 100 nM.

As for `O=C(O)c1ccc(-c2ccc3cc(O)ccc3c2Cl)cc1`, the IC50 was under 100 nM.

Take `O=C(O)c1ccc(-c2nc3ccc(O)cc3c(Cl)c2F)cc1`: the IC50 is under 100 nM.

As to `COc1cc2c(=O)c(-c3ccc(C(=O)O)cc3)c(C(F)(F)F)oc2cc1O`, the IC50 fell in the range of 100 to 1000 nM.

As for `O=C(O)c1ccc(-c2cc3ccc(O)cc3[n+]([O-])c2)cc1`, the IC50 lay in the range of 1000 to 10000 nM.

Turning to `O=C(O)c1ccc(-c2c(-c3ccsc3)oc3cc(O)ccc3c2=O)cc1`, the IC50 was in the range of 1000 to 10000 nM.

Take `O=C(O)c1ccc(-c2cnc3cc(O)ccc3c2)cc1`: the IC50 is 1000 to 10000 nM.

In the case of `O=C(O)c1ccc(-c2nc3ccc(O)cc3nc2C(F)(F)F)cc1`, the IC50 was under 100 nM.

Regarding `O=C(O)c1ccc(-c2ccc3c(F)c(O)ccc3c2)cc1`, the IC50 is under 100 nM.

Turning to `O=C(O)c1ccc(Cc2sc3cc(O)ccc3c(=O)c2-c2ccc(C(=O)O)cc2)cc1`, the half-maximal inhibitory concentration (IC50) was in the range of 100 to 1000 nM.

With `O=C(O)c1ccc(-c2nc3cc(O)ccc3nc2C(F)(F)F)cc1`, the IC50 lay within 100 to 1000 nM.

As to `O=C(O)c1ccc(-c2nc3ccc(O)cc3cc2C(F)(F)F)cc1`, the IC50 is under 100 nM.

For the compound `O=C(O)c1ccc(-c2c(-c3cccs3)oc3cc(O)ccc3c2=O)cc1`, the concentration for half-maximal inhibition (IC50) lay within 1000 to 10000 nM.

For the compound `Cc1nc(-c2ccc(C(=O)O)cc2)nc2ccc(O)cc12`, the IC50 was 1000 to 10000 nM.
